Our source for the Activity values is ChEMBL document CHEMBL6121047, “Design, Synthesis, and Evaluation of Selective PDE4 Inhibitors for the Therapy of Pulmonary Injury” (J Med Chem, 2025).

The structures appear in SMILES notation.

The subject of assay [1] is RAW264.7. The assay is described as follows: Anti-inflammatory activity in LPS-induced mouse RAW264.7 cells assessed as inhibition of TNF-alpha secretion preincubated with compound for 1 hr followed by LPS addition and measured after 24 hrs by ELISA. Format: functional, cell-based. To be noted: dose 0.1-100 µM, time 25.0 hrs. A general note: An ELISA detects its analyte on a solid surface through an enzyme-linked reagent.

Assay [2] concerns RAW264.7. Put plainly: Anti-inflammatory activity in LPS-induced mouse RAW264.7 cells assessed as inhibition of IL-6 secretion preincubated with compound for 1 hr followed by LPS addition and measured after 24 hrs by ELISA. To be noted: dose 0.1-100 µM, time 25.0 hrs. Format: functional, cell-based.

As for `O=C(Nc1nccs1)c1cccc2[nH]c(-c3ccc(OC(F)F)c(OCC4CC4)c3)nc12`, the Activity result in assay [1] and in assay [2] was “Dose-dependent-effect” in each case.
